US20250387499A1, “LIGAND-PAYLOAD CONJUGATES” (priority 2022, published 2025)
Marks after values point to notes of the source that are not given here.

Assays:
[1] = tested on: JIMT-1; assay: JIMT-1 xenograft in CB-17 SCID female model, tumor growth inhibition; format: in vivo, mouse
[2] = tested on: NCI-N87; assay: NCI-N87 xenograft in Balb/c nude female model, tumor growth inhibition; format: in vivo, mouse
Description: Tumor Growth Inhibition (TGITV) is defined as: TGITV (%)=[1−(Ti−T0)/(Vi−V0)]×100% Ti refers to the mean tumor volume of treatment group measured at each indicated time points following treatment; T0 refers to the tumor volume of treatment group when grouping; Vi refers to the mean tumor volume of control group measured at each indicated time points following treatment; V0 refers to the tumor volume of control group when grouping. […] There were 8 animals per group, and the tumors were allowed to grow to about 184 mm^3. The ADC was then administered i.v., single dose at day 0, at dosages of 0.5 mg/kg, 1 mg/kg, 2 mg/kg, or 4 mg/kg. The animals were measured twice a week (BIW) for tumor volume and body weight. Data analysis was performed using GraphPad and two-way ANOVA.

With Trastuzumab deruxtecan [ADC8] the “TGI (%) (Day 27)” value ([1]; 5 mg/kg i.v. at day 0 and 7, JIMT-1 in CB-17 SCID mice) was 91.48* %, the “TGI (%) (Day 27)” value ([1]; 10 mg/kg i.v. at day 0 and 7, JIMT-1 in CB-17 SCID mice) was 101.02** % and the “TGI (%) (Day 20)” value ([2]; 0.5 mg/kg i.v. single dose at day 0, NCI-N87 in Balb/c nude mice) was 33.21** %. The “TGI (%) (Day 20)” value ([2]; 1 mg/kg i.v. single dose at day 0, NCI-N87 in Balb/c nude mice) was 51.90** % and the “TGI (%) (Day 20)” value ([2]; 2 mg/kg i.v. single dose at day 0, NCI-N87 in Balb/c nude mice) was 74.86* %.
